Results as given in publication PMC8000448, “Inhibitory Effects of Schisandra Lignans on Cytochrome P450s and Uridine 5′-Diphospho-Glucuronosyl Transferases in Human Liver Microsomes” (Pharmaceutics, 2021).
Where “and” joins values, the source holds several entries; their conditions need not be identical. Equal values may be shown once. Read-outs that look alike come from different tables or passages of the source.

Amino acid sequences for entries named in this document (tags omitted). A change or cut given only in a name is not applied to a line headed by its entry.
UniProt P33261, whole entry: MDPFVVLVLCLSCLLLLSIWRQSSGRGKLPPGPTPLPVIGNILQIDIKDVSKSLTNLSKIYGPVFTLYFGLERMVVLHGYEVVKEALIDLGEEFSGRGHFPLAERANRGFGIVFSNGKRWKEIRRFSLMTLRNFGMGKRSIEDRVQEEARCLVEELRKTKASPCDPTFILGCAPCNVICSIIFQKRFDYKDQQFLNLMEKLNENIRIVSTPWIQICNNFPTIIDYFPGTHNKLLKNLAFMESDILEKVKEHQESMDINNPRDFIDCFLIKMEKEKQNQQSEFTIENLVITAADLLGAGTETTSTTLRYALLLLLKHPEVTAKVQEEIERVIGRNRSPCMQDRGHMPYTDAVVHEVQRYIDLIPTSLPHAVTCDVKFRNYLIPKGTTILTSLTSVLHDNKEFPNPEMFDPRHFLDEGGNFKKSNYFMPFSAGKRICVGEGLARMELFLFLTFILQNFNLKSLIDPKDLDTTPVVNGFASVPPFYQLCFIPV
UniProt P10632, whole entry: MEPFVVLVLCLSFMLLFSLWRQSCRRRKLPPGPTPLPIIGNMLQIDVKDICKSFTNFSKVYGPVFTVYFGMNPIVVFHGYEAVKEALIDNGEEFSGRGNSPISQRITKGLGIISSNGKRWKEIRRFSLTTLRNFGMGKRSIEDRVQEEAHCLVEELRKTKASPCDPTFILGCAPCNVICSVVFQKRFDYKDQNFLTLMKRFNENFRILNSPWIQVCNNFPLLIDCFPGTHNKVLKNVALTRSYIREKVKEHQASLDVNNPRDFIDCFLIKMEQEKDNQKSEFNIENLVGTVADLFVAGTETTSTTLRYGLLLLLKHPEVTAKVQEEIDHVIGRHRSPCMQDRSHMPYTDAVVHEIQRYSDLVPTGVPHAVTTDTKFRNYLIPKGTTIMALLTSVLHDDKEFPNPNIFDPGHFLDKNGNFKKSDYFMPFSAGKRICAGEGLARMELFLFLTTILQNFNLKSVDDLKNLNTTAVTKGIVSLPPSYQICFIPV
UniProt P05177, whole entry: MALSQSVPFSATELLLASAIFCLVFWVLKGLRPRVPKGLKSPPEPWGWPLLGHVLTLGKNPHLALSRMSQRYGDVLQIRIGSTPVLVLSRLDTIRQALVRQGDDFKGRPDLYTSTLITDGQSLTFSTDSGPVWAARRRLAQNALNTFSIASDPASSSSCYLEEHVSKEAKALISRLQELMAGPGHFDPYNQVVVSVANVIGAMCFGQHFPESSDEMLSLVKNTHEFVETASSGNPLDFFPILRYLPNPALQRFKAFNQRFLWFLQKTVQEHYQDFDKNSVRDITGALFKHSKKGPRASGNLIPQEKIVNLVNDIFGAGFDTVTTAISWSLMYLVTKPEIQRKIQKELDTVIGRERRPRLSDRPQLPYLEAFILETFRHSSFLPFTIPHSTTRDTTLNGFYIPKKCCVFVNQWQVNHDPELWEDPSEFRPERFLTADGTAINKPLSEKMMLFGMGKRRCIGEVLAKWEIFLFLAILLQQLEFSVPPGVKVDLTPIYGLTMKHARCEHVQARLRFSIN
UniProt P05181: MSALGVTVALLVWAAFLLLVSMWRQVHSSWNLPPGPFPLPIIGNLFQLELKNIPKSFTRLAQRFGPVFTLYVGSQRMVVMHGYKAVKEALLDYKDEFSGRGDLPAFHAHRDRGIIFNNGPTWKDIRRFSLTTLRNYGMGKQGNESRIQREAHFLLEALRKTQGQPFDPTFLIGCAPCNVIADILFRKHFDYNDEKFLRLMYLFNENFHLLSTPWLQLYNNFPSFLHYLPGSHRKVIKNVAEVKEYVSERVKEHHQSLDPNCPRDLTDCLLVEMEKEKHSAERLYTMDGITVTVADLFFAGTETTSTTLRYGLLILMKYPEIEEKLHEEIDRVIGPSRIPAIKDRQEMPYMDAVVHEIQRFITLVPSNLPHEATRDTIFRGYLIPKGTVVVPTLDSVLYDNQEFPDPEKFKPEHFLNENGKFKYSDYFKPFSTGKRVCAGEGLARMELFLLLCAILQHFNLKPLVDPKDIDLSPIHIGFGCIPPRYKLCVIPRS

How the values were obtained:
UGT1A1 = molecular target: T1, UGT1A1 (Homo sapiens, UniProt P22309); experiment: UGT1A1 inhibition in HLMs (SN-38); type: in vitro ADME; settings: average in triplicate, read-out: IC50, UGT 1A1
T1 construct: pooled HLMs (0.25 mg/mL); tissue XenoTech H2630; host or cells: pooled human liver microsomes, mixed gender
T1 sequence (P22309 26-533): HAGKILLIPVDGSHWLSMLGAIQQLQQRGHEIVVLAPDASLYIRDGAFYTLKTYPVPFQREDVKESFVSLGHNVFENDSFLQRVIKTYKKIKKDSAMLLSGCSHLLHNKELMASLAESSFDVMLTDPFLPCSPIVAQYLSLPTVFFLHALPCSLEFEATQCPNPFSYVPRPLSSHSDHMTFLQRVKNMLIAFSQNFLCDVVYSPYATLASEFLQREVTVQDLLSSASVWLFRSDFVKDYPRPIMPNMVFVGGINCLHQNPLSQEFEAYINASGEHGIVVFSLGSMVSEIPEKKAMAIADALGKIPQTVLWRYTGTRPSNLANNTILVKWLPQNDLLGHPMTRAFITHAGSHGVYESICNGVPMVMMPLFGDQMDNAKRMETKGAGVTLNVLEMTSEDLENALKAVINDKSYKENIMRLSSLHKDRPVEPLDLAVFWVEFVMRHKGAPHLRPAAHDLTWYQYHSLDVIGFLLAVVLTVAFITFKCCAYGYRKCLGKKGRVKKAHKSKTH
Experimental: (§1) The inhibitory potential of six lignans on six UGT activities was evaluated using the previously developed cocktail method with slight modifications. […] These substrates are known to be selective for each UGT isoforms.

CYP2C19 = CYP2C19 (Homo sapiens, UniProt P33261); experiment: CYP2C19 inhibition in HLMs (S-mephenytoin); settings: for IC50 Shift, CYP2C19: RI/TDI fold shift
UGT1A6 = molecular target: T2, UGT1A6 (Homo sapiens, UniProt P19224); experiment: UGT1A6 inhibition in HLMs (N-acetylserotonin); type: in vitro ADME; settings: average in triplicate, read-out: IC50, UGT 1A6
T2 construct: pooled HLMs (0.25 mg/mL); tissue XenoTech H2630; host or cells: pooled human liver microsomes, mixed gender
T2 sequence (P19224 27-532): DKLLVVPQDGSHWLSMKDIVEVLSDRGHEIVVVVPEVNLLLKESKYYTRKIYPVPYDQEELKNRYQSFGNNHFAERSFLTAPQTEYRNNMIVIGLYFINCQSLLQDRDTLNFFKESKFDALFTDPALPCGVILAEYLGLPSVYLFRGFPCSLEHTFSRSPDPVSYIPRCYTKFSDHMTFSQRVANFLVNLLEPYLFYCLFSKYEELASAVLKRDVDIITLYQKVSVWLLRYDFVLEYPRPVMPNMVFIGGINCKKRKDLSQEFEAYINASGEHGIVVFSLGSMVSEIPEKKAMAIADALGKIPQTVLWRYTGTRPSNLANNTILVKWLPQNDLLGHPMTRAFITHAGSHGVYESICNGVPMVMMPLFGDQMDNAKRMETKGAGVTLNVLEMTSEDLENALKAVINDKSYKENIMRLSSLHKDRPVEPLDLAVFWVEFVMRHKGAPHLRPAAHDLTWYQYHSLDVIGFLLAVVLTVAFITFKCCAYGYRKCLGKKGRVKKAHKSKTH
Experimental: as §1

rCYP2C8 = molecular target: T3, rCYP2C8 (Homo sapiens, UniProt P10632); experiment: Inhibition of recombinant CYP2C8 (amodiaquine); type: in vitro ADME
T3 construct: purchased SPMED (Busan, Korea)
Experimental: The incubation mixture consisted of 0.1 M potassium phosphate buffer (pH 7.4), 20 pmol/mL rCYP2C8, rCYP2C19, or rCYP3A4 enzyme, respective probe substrate and gomisin A (0~50 μM) in a final volume of 100 μL. After a 5 min pre-incubation period at 37 °C, reactions were initiated by the addition of an NADPH generating system, and further incubated for 10 min at 37 °C. […] Other conditions remained as described above.

CYP2C8 = molecular target: T4, CYP2C8 (Homo sapiens, UniProt P10632); experiment: CYP2C8 inhibition in HLMs (amodiaquine); type: in vitro ADME; settings: for IC50 Shift, CYP2C8: RI/TDI fold shift
T4 construct: pooled HLMs (0.25 mg/mL); tissue XenoTech H2630; host or cells: pooled human liver microsomes, mixed gender
Experimental: (§2) Lignans were first dissolved in methanol. […] All microsomal incubations were performed in triplicate.

CYP1A2 = molecular target: T5, CYP1A2 (Homo sapiens, UniProt P05177); experiment: CYP1A2 inhibition in HLMs (phenacetin, cocktail, IC50 and IC50 shift); type: in vitro ADME
T5 construct: pooled HLMs (0.25 mg/mL); tissue XenoTech H2630; host or cells: pooled human liver microsomes, mixed gender
Experimental: as §2

CYP2E1 = molecular target: T6, CYP2E1 (Homo sapiens, UniProt P05181); experiment: CYP2E1 inhibition in HLMs (chlorzoxazone); type: in vitro ADME; settings: for IC50 Shift, CYP2E1: RI/TDI fold shift
T6 construct: pooled HLMs (0.25 mg/mL); tissue XenoTech H2630; host or cells: pooled human liver microsomes, mixed gender
Experimental: as §2

CYP2A6 = molecular target: T7, CYP2A6 (Homo sapiens, UniProt P11509); experiment: CYP2A6 inhibition in HLMs (coumarin); type: in vitro ADME
T7 construct: pooled HLMs (0.25 mg/mL); tissue XenoTech H2630; host or cells: pooled human liver microsomes, mixed gender
T7 sequence (P11509 1-494): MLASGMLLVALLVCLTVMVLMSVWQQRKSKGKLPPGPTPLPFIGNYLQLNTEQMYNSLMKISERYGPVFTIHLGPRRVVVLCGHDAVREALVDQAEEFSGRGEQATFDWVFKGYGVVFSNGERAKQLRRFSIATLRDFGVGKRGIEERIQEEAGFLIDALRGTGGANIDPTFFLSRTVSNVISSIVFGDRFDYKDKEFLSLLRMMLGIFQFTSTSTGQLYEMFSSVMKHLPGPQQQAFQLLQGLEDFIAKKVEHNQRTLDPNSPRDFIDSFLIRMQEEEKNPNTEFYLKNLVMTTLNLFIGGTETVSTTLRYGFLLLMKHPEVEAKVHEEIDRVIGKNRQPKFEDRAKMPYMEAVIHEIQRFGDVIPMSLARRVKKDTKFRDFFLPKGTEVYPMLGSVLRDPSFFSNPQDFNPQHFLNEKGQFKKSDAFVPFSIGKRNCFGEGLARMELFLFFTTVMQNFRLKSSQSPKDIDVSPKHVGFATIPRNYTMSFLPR
Experimental: as §2

[1] = read-out: IC50 RI, CYP2C19, reversible inhibition
[2] = read-out: IC50 TDI, CYP2C19, 30 min pre-incubation with NADPH generating system
[3] = 30 min pre-incubation with NADPH generating system, read-out: IC50 TDI, CYP2C8
[4] = reversible inhibition, read-out: IC50 RI, CYP2C8
[5] = 30 min pre-incubation with NADPH generating system, read-out: IC50 TDI, CYP1A2
[6] = reversible inhibition, no 30 min NADPH pre-incubation, read-out: IC50 RI, CYP1A2
[7] = 30 min pre-incubation with NADPH generating system, read-out: IC50 TDI, CYP2E1
[8] = reversible inhibition, read-out: IC50 RI, CYP2E1
[9] = 30 min pre-incubation with NADPH generating system, read-out: IC50 TDI, CYP2A6
[10] = reversible inhibition, read-out: IC50 RI, CYP2A6

| Substance | IC50 (UGT1A1) [µM] | IC50 Shift, CYP2C19 (CYP2C19) | IC50 (CYP2C19; [1]) [µM] | IC50 (CYP2C19; [2]) | IC50 (UGT1A6) [µM] | IC50 (CYP2C8; [3]) | IC50 Shift, CYP2C8 (CYP2C8) | IC50 (CYP2C8; [4]) [µM] | IC50 (CYP1A2; [5]) [µM] | IC50 (CYP1A2; [6]) [µM] | IC50 (CYP2E1; [7]) [µM] | IC50 Shift, CYP2E1 (CYP2E1) | IC50 (CYP2E1; [8]) [µM] | IC50 (CYP2A6; [9]) [µM] | IC50 (CYP2A6; [10]) [µM] | also measured |
| --- | --- | --- | --- | --- | --- | --- | --- | --- | --- | --- | --- | --- | --- | --- | --- | --- |
| gomisin A | > 50 | > 1.8 and 2.3 | 11.2 | ≤ 5 µM and 4.8 µM | > 50 | ≤ 5 µM and 2.8 µM | 10.5 | 29.3 | > 50 | 37.4 | 15.6 | >3.2 | > 50 | > 50 | > 50 | IC50 (CYP2C19; read-out: IC50 TDI, CYP2C19, 30 min pre-incubation with NADPH generating system, listed as gomisin A): < 5 µM; IC50 (rCYP2C8; recombinant enzyme 20 pmol/mL, average ± S.E. of triplicate, read-out: IC50 RI, rCYP2C8): 30.4 ± 8.1 µM; IC50 (rCYP2C8; recombinant enzyme, 30 min NADPH pre-incubation, average ± S.E., listed as gomisin A, read-out: IC50 TDI, rCYP2C8): < 5 µM; IC50 (rCYP2C8; recombinant enzyme, 30 min NADPH pre-incubation, average ± S.E., read-out: IC50 TDI, rCYP2C8): 3.32 ± 1.05 µM; IC50 shift, rCYP2C8 (rCYP2C8; recombinant enzyme, RI/TDI fold shift): 9.2; IC50 (CYP2C8; 30 min pre-incubation with NADPH generating system, listed as gomisin A, read-out: IC50 TDI, CYP2C8): < 5 µM; IC50 (CYP2C8; reversible inhibition, listed as gomisin A, read-out: IC50 RI, CYP2C8): > 29 µM |
| gomisin B | 20.7 | time-independent inhibition | > 50 | 37.8 µM | > 50 | 4.9 µM | 3.4 | 16.5 | > 50 | > 50 | 20.6 | >2.4 | > 50 | > 50 | > 50 |  |
